According to PMC5329011 (Frontiers in Neuroscience, 2017):

Tests used:
[1] = target: T1, vascular smooth muscle apelin receptor (Homo sapiens, UniProt P35414); assay: Contraction of endothelium-denuded human saphenous vein; settings: mean ± SEM, n = 9, read-out: pD2, contraction of saphenous vein (converted)
T1 construct: from tissue; host or cells: endothelium-denuded human saphenous vein
T1 sequence (P35414 1-380): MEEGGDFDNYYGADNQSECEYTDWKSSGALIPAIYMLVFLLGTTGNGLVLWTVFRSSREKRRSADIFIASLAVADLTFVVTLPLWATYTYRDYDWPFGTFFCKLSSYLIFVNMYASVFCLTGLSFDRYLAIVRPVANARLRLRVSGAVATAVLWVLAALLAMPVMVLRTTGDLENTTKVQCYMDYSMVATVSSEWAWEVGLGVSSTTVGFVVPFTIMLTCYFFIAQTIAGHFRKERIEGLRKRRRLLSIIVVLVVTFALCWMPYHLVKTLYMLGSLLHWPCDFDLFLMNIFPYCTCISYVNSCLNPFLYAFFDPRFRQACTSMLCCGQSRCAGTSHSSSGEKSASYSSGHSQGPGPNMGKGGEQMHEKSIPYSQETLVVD
Method: Vascular smooth muscle apelin receptor-mediated contraction was exploited in a bioassay to compare the in vitro potency of apelin peptides. […] Agonist responses were expressed as a % of a terminal response to KCl (100 mmol/L). […] Data were expressed as % of the terminal response to CaCl2. Data from vascular and cardiac experiments were analyzed using a 4-prameter logistic curve (GraphPad Prism 6) to determine values of pD2 and EMAX.

apelin receptor [2] = target: T2, apelin receptor (Homo sapiens, UniProt P35414); assay: β-arrestin recruitment assay (DiscoverX); format: cell-based; settings: cells expressing human apelin receptor, mean ± SEM, n = replicates/experiments, read-out: pD2, β-arrestin recruitment (converted)
T2 sequence (P35414 1-380): T1 sequence (P35414 1-380)
Method: (§1) Inhibition of cAMP accumulation, β-arrestin recruitment and receptor internalization by apelin isoforms, modified and truncated apelin peptides were studied using cells expressing the human apelin receptor (DiscoverX, CA, USA) as per the manufacturer's instructions. In all assays the resulting chemiluminescent signal was measured as relative light units (RLU) using a LumiLITE™ Microplate Reader (DiscoveRx, Fremont, CA). […] Agonist responses were expressed as a % of the forskolin response. […] Data were analyzed using a 4-parameter logistic equation using GraphPad Prism 6 to determine values of potency, pD2 (−log10 EC50, where EC50 is the concentration producing half maximal response) and maximum response (EMAX). n-Values are given as number of replicates/number of experiments.

apelin receptor [3] = target: T2, apelin receptor; assay: Competition binding with [Glp65,Nle75,Tyr77][125I]apelin-13 in human left ventricle homogenate; set-up: from tissue; host or cells: human left ventricle homogenate; settings: 0.1 nmol/L radioligand, 90 min, 22°C, pH 7.4, Cheng-Prusoff, mean ± SEM, n = 3
Method: Assays were performed in human heart as previously described (Brame et al., [2015]). […] Equilibrium was broken by centrifugation (20,000 g for 10 min, 4°C) and pellets washed with Tris-HCl buffer (50 mmol/L, pH 7.4, 4°C), re-centrifuged and pellets counted for detection of bound radioactivity. Competition binding data were analyzed using GraphPad Prism 6 (GraphPad Software, Inc. La Jolla, CA, USA) to obtain values of pKi (the negative log10 of the dissociation constant derived from the IC50 for the competing ligands, the radioligand concentration and radioligand affinity by the Cheng and Prusoff equation). Experiments were performed in triplicate.
Measurements are mean ± standard error of the mean (SEM). […] Cell assay pD2 values were compared by one-way ANOVA followed by Tukey's multiple comparison test.

apelin receptor [4] = target: T2, apelin receptor; assay: Inhibition of forskolin-stimulated cAMP accumulation (DiscoverX); format: cell-based; settings: 15 μmol/L forskolin, cells expressing human apelin receptor, mean ± SEM, n = replicates/experiments, read-out: pD2, inhibition of forskolin-stimulated cAMP (converted)
Method: as §1

CSCC[C@H](NC(=O)[C@@H]1CCCN1C(=O)CNC(=O)[C@H](CCCCN)NC(=O)[C@H](Cc1c[nH]cn1)NC(=O)[C@H](CO)NC(=O)[C@H](CC(C)C)NC(=O)[C@H](CCCNC(=N)N)NC(=O)[C@@H]1CCCN1C(=O)[C@H](CCCNC(=N)N)NC(=O)[C@@H](N)CCC(N)=O)C(=O)N1CCC[C@H]1C(=O)N[C@@H](C)C(=O)O [apelin-13(F13A), reference compound]
EC50 [1]: 0.191 nM | EC50 (apelin receptor [2]): 10.5 nM | Ki (apelin receptor [3]): 8.51 nM | EC50 (apelin receptor [4]): 0.288 nM
